Reference: US4438104A, “Endorphins having placental or pancreatic origin” (Endorphin, Inc., priority 1982, dated 1984)

Test system: opiate receptors in rat brain homogenates
Assay: Radioreceptor assay (RRA): displacement of H^3-Naloxone binding in rat brain tissue
Conditions: stereospecificity

For `CN1CC[C@]23CCCC[C@H]2[C@H]1Cc1ccc(O)cc13` [Levorphanol], the “potency in displacing Naloxone relative to enantiomer Dextrophan” value was 500 times.
